Assay results reported in publication PMC8442969 (Protein Science : A Publication of the Protein Society, 2021).

Chains of the proteins cited; added tags and fusions are not shown. Lines headed by an entry give the natural chain unless they say otherwise; changes in a name come on top.
UniProt P0CG48: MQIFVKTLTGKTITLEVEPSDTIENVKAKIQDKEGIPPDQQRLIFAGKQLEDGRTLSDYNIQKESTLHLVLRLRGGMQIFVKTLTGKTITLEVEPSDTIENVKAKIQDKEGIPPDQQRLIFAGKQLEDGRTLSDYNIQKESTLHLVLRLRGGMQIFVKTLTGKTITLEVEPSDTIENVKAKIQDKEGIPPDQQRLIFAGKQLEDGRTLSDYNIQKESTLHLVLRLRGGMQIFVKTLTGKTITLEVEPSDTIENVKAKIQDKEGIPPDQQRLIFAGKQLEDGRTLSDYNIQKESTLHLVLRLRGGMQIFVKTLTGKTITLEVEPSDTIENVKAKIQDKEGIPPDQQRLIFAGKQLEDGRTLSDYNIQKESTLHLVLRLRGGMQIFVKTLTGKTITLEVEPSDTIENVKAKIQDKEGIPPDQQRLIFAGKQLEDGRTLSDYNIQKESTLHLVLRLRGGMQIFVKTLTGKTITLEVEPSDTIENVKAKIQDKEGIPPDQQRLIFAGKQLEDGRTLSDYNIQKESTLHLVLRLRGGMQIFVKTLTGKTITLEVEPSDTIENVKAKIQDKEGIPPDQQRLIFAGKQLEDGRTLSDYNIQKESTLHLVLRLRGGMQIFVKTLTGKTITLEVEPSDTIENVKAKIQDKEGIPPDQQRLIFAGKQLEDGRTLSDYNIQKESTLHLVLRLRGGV

Biological target: 6His-tagged human mono-ubiquitin (bought) (human, UniProt P0CG48, in part)
Experiment: pull-down

B1: GST-tagged human DSS1 (natural protein)
chain: MSEKKQPVDLGLLEEDDEFEEFPAEDWAGLDEDEDAHVWEDNWDDDNVEDDFSNQLRAELEKHGYKMETS
  binding result: binds
